Test results reported in patent US9012443B2 (Amgen Inc., priority 2011, dated 2015).

Chains of the proteins cited; added tags and fusions are not shown.
UniProt Q15858, whole entry: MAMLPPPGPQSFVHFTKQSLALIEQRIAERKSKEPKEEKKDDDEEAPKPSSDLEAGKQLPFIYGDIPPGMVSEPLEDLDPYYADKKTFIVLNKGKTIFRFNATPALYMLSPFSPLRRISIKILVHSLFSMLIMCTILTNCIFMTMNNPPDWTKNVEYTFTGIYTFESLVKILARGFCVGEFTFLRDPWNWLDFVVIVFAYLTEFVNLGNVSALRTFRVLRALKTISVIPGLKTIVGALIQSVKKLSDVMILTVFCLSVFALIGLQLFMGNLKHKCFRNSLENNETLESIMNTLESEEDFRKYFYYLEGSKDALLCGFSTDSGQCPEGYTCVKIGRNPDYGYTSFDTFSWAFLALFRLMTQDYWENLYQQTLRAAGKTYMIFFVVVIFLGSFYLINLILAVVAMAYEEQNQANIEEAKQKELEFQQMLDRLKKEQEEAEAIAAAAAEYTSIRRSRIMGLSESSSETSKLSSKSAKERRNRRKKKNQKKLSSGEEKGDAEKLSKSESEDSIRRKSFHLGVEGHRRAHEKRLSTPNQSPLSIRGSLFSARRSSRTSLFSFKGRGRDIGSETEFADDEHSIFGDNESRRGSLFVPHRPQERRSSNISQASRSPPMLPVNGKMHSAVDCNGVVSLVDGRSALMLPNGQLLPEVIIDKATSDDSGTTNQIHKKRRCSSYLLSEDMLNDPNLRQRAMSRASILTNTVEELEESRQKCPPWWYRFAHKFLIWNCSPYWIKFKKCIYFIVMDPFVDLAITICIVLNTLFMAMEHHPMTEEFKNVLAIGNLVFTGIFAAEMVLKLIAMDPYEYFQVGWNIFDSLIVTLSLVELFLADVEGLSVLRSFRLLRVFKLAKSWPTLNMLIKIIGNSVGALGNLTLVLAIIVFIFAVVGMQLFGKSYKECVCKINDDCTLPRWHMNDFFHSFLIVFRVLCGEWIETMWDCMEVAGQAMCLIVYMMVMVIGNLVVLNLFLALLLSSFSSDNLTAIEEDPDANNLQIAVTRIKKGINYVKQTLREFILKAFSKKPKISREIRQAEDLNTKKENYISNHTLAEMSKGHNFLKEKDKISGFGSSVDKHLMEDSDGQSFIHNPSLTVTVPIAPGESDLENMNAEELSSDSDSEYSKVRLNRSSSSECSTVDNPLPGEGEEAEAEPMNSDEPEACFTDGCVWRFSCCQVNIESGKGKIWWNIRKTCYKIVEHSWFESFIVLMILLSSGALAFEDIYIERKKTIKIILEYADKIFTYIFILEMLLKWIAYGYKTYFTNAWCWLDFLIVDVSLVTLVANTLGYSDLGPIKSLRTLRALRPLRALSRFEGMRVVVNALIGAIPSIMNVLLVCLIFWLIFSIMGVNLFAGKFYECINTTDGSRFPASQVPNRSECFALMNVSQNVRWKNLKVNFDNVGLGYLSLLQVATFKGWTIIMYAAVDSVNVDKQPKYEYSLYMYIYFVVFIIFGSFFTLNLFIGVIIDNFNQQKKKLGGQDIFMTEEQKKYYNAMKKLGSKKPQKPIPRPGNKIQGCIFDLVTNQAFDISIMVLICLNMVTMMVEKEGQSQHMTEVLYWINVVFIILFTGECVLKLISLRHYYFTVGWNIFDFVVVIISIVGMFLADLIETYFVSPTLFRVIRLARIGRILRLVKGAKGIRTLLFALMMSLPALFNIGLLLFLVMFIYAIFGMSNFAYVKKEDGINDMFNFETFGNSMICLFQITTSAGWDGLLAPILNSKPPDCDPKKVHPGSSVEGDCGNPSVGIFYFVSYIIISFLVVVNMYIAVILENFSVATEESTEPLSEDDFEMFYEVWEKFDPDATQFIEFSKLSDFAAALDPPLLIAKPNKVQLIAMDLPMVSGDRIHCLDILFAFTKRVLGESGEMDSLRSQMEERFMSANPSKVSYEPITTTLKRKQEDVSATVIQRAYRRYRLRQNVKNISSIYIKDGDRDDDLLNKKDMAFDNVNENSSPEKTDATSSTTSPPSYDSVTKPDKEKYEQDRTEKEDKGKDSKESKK
UniProt Q14524, whole entry: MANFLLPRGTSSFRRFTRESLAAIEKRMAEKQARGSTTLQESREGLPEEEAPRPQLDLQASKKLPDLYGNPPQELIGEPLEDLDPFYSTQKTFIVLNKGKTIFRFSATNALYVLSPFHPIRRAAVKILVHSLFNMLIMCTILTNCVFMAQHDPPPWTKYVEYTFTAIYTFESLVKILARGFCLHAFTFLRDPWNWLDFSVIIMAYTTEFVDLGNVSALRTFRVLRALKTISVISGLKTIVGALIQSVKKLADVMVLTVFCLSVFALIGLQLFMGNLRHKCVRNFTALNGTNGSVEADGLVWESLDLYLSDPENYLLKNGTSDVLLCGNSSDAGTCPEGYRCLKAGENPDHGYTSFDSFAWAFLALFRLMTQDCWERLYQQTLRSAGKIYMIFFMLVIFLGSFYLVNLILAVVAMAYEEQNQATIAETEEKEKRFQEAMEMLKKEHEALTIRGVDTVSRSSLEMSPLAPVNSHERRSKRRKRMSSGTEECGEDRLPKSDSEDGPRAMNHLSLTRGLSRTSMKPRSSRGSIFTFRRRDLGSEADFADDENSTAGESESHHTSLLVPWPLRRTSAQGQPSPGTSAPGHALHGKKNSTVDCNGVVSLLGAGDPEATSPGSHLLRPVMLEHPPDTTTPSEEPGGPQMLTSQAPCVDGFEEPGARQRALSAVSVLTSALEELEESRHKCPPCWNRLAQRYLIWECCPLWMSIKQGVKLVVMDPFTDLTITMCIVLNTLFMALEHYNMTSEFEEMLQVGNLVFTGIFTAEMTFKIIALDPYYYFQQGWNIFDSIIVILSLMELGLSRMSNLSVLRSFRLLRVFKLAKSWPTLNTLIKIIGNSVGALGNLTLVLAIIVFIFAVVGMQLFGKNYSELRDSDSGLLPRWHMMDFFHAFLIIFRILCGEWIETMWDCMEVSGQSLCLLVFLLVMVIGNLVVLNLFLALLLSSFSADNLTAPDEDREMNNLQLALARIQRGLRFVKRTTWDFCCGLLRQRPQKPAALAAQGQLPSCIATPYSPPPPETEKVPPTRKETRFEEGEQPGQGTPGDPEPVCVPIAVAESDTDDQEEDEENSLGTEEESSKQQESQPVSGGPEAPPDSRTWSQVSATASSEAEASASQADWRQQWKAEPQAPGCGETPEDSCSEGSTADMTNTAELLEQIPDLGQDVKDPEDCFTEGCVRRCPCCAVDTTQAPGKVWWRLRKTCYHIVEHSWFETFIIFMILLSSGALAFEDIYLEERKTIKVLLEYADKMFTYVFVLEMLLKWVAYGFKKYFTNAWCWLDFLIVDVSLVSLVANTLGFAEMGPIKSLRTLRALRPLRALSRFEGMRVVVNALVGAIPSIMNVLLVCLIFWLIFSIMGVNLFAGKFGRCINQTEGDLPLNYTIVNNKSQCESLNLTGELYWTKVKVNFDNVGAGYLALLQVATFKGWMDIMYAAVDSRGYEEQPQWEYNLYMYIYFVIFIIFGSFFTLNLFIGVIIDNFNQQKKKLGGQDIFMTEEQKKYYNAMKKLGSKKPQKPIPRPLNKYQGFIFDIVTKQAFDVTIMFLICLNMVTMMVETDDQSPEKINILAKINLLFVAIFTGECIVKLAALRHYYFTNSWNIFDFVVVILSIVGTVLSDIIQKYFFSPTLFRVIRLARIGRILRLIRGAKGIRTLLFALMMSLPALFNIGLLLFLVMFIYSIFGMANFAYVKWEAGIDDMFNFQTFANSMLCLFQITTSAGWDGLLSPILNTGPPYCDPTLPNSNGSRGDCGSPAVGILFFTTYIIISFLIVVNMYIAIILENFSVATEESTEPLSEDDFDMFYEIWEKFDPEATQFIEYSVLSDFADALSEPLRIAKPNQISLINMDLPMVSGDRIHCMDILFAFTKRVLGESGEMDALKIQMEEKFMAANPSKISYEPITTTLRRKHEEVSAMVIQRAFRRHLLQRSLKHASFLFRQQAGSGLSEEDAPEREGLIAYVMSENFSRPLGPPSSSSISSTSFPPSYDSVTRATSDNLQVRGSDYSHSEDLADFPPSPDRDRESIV

Assays:
Nav 1.7 = Nav 1.7 (Homo sapiens (Human), UniProt Q15858); test: Nav 1.7 IWQ in vitro assay (IonWorks Quattro population patch-clamp); assay type: cell-based; conditions: 293 cells stably transfected with Nav 1.7; first part of table
Method: Nav 1.7 or Nav 1.5 IWQ In Vitro Assay
293 Cells stably transfected with either Nav 1.7 or Nav 1.5 were recorded in population patch-clamp mode with the IonWorks® Quattro automated electrophysiology system in accordance with the manufacturer's specifications (Molecular Devices, LLC, Sunnyvale, Calif.). Sodium channel currents were measured in response to a train of depolarizations that induced successively greater inactivation.
Cells were then left unclamped for a period of 3 to 8 minutes while a single concentration of test compound was added. Cells were then reclamped and put through the same voltage protocol. Current at the end of the 26th pulse to −20 mV was subtracted from the peak current evoked by the 26th pulse to −20 mV to correct for leak current. Percent block was calculated for each concentration in duplicate, and IC50 curves were fitted to percent block as a function of concentration.

Nav 1.5 = Nav 1.5 (Homo sapiens (Human), UniProt Q14524); test: Nav 1.5 in vitro PX assay (PatchXpress whole cell voltage clamp); assay type: cell-based; conditions: 293 cells stably transfected with Nav 1.5; first part of table
Method: Nav 1.5 In Vitro PX Assay
293 cells stably transfected with Nav 1.5 were recorded in whole cell voltage clamp mode with the PatchXpress automated electrophysiology system according the manufacturer's specifications (Molecular Devices, LLC, Sunnyvale, Calif.). Cells were held at a holding potential of −50 mV to inactivate sodium channels. To elicit sodium currents the voltage was changed to −120 mV to recover a portion of the channels, followed by delivery of test pulses of 20 msec duration to 0 mV, at 0.1 Hz. A single concentration of test compound was applied to cells for a duration of 5 minutes. Peak sodium current was measured at the end of the compound addition period to determine percent inhibition. A minimum of two cells were tested per concentration. IC50 curves were fitted to percent inhibition as a function of concentration.

| Structure (SMILES) | IC50 (Nav 1.7) | IC50 at 5 min (Nav 1.5) | IC50 (Nav 1.5) |
| --- | --- | --- | --- |
| Cn1nccc1-c1cc(C(F)(F)F)ccc1-c1cccc2cc(S(=O)(=O)Nc3ncns3)ccc12 [Example 1] | 30 nM | > 30000 nM |  |
| O=S(=O)(Nc1ncns1)c1ccc2c(-c3ccc(C(F)(F)F)cc3O)cccc2c1 [Example 38] | 490 nM |  | 23100 nM |
